Literature values as cited in patent US20150132388A1, “COMPLEXES OF FULVESTRANT AND ITS DERIVATIVES, PROCESS FOR THE PREPARATION THEREOF AND PHARMACEUTICAL COMPOSITIONS CONTAINING THEM” (Druggability Technologies Holdings Limited, priority 2013, published 2015).

Chains of the proteins cited; added tags and fusions are not shown.
UniProt P03372, whole entry: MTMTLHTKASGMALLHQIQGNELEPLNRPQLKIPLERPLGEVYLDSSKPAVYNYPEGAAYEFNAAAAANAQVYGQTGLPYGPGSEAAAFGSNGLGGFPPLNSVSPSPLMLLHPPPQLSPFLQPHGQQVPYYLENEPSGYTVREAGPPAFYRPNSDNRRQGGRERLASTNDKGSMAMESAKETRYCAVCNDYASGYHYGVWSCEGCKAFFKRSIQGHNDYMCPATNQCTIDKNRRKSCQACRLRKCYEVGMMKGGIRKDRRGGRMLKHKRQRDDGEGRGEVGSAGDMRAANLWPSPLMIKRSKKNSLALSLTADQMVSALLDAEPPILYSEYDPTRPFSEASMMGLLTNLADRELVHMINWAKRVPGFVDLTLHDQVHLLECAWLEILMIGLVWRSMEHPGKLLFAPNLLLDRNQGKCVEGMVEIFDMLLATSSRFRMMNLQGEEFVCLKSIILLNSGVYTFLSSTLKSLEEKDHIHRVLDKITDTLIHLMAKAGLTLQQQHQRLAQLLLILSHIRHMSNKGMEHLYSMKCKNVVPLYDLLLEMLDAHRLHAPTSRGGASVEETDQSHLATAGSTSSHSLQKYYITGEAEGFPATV

Target: estrogen receptor (Homo sapiens, UniProt P03372)
Settings: competitive binding; cited from earlier work

7-alpha-[9-(4,4,5,5,5-penta fluoropentylsulphinyl)nonyl]estra-1,3,5-(10)-triene-3,17 beta-diol [Fulvestrant]
Affinity for the estrogen receptor: affinity comparable to that of estradiol
